Legend:
RSKAKNPLY = biological target: T1, RSKAKNPLY
T1 chain: RSKAKNPLY

RSKAKNPLYR = biological target: T2, RSKAKNPLYR
T2 chain: RSKAKNPLYR

RSKAKNPLYR-(2Adod)4-NH2 = biological target: T3, RSKAKNPLYR-(2Adod)4-NH2
T3 chain: RSKAKNPLYR

B1: Lymphocyte-specific protein tyrosine kinase (Lck), enzyme in cell-free kinase assay (protein)
chain: MGCGCSSHPEDDWMENIDVCENCHYPIVPLDGKGTLLIRNGSEVRDPLVTYEGSNPPASPLQDNLVIALHSYEPSHDGDLGFEKGEQLRILEQSGEWWKAQSLTTGQEGFIPFNFVAKANSLEPEPWFFKNLSRKDAERQLLAPGNTHGSFLIRESESTAGSFSLSVRDFDQNQGEVVKHYKIRNLDNGGFYISPRITFPGLHELVRHYTNASDGLCTRLSRPCQTQKPQKPWWEDEWEVPRETLKLVERLGAGQFGEVWMGYYNGHTKVAVKSLKQGSMSPDAFLAEANLMKQLQHQRLVRLYAVVTQEPIYIITEYMENGSLVDFLKTPSGIKLTINKLLDMAAQIAEGMAFIEERNYIHRDLRAANILVSDTLSCKIADFGLARLIEDNEYTAREGAKFPIKWTAPEAINYGTFTIKSDVWSFGILLTEIVTHGRIPYPGMTNPEVIQNLERGYRMVRPDNCPEELYQLMRLCWKERPEDRPTFDYLRSVLEDFFTATEGQYQPQP
B1 was tested, and the “auto-phosphorylation of Lck at Y394 (Western blot, anti-pY394 Lck), peptide at 10 µM and 30 µM” value (RSKAKNPLY) was “exposure of Lck to the peptide RSKAKNPLY at 10 µM and 30 µM induces a dose-dependent auto-phosphorylation of Lck”, the “auto-phosphorylation of Lck at Y394 (Western blot, anti-pY394 Lck), peptide at 10 µM and 30 µM” value (RSKAKNPLYR) was “weak auto-phosphorylation of Lck at Y394 in the presence of ATP that does not increase with exposure of Lck to the peptide RSKAKNPLYR at 10 µM and 30 µM” and the “auto-phosphorylation of Lck at Y394 (Western blot, anti-pY394 Lck), compound at 10 µM” value (RSKAKNPLYR-(2Adod)4-NH2) was “the auto-phosphorylation of Lck observed in the presence of 10 µM RSKAKNPLYR-4C10 exceeded that observed for RSKAKNPLY alone at the same concentration”.

From patent US11912789
